Test results published in US20160024487.

Tests used:
[1] = system: Lys(Dnp)-ATNATELPRIVGG-Lys(Abz)
[2] = system: Lys(Dnp)-ATNATRDPRIVGG-Lys(Abz)
[3] = system: Lys(Dnp)-ATNATTPPRIVGG-Lys(Abz)
[4] = system: Lys(Dnp)-ATNATHIPRIVGG-Lys(Abz)
[5] = system: Lys(Dnp)-ATNATKNPRIVGG-Lys(Abz)
[6] = system: Lys(Dnp)-ATNATRAPRIVGG-Lys(Abz)
[7] = system: Lys(Dnp)-ATNATNWPRIVGG-Lys(Abz)
[8] = system: Lys(Dnp)-ATNATGEPRIVGG-Lys(Abz)
[9] = system: Lys(Dnp)-ATNATMDPRIVGG-Lys(Abz)
[10] = system: Lys(Dnp)-ATNATNLPRIVGG-Lys(Abz)
[11] = system: Lys(Dnp)-ATNATKWPRIVGG-Lys(Abz)
[12] = system: Lys(Dnp)-ATNATKKPRIVGG-Lys(Abz)
[13] = system: Lys(Dnp)-ATNATRRPRIVGG-Lys(Abz)
[14] = system: Lys(Dnp)-ATNATKMPRIVGG-Lys(Abz)
[15] = system: Lys(Dnp)-ATNATNRPRIVGG-Lys(Abz)
[16] = system: Lys(Dnp)-ATNATRVPRIVGG-Lys(Abz)
[17] = system: Lys(Dnp)-ATNATNEPRIVGG-Lys(Abz)
[18] = system: Lys(Dnp)-ATNATTLPRIVGG-Lys(Abz)
[19] = system: Lys(Dnp)-ATNATX4X3PRIVGG-Lys(Abz), X4 = Q, X3 = L
[20] = system: Lys(Dnp)-ATNATX4X3PRIVGG-Lys(Abz), X4 = T, X3 = E
[21] = system: Lys(Dnp)-ATNATVQPRIVGG-Lys(Abz)
[22] = system: Lys(Dnp)-ATNATQYPRIVGG-Lys(Abz)
[23] = system: Lys(Dnp)-ATNATAQPRIVGG-Lys(Abz)
[24] = system: Lys(Dnp)-ATNATX4X3PRIVGG-Lys(Abz), X4 = G, X3 = V
[25] = system: Lys(Dnp)-ATNATNPPRIVGG-Lys(Abz)
[26] = system: Lys(Dnp)-ATNATX4X3PRIVGG-Lys(Abz), X4 = D, X3 = Y
[27] = system: Lys(Dnp)-ATNATYSPRIVGG-Lys(Abz)
[28] = system: Lys(Dnp)-ATNATX4X3PRIVGG-Lys(Abz), X4 = S, X3 = T
[29] = system: Lys(Dnp)-ATNATIEPRIVGG-Lys(Abz)
[30] = system: Lys(Dnp)-ATNATX4X3PRIVGG-Lys(Abz), X4 = Q, X3 = W
[31] = system: Lys(Dnp)-ATNATSHPRIVGG-Lys(Abz)
[32] = system: Lys(Dnp)-ATNATX4X3PRIVGG-Lys(Abz), X4 = H, X3 = W
[33] = system: Lys(Dnp)-ATNATWGPRIVGG-Lys(Abz)
[34] = system: Lys(Dnp)-ATNATPYPRIVGG-Lys(Abz)
[35] = system: Lys(Dnp)-QISNDTVSPRIVGG-Lys(Abz)
[36] = system: Lys(Dnp)-ATNATLSPRIVGG-Lys(Abz)
[37] = system: Lys(Dnp)-ATNATX4X3PRIVGG-Lys(Abz), X4 = G, X3 = P
[38] = system: Lys(Dnp)-ATNATX4X3PRIVGG-Lys(Abz), X4 = A, X3 = E
[39] = system: Lys(Dnp)-ATNATWTPRIVGG-Lys(Abz)
[40] = system: Lys(Dnp)-ATNATYWPRIVGG-Lys(Abz)
[41] = system: Lys(Dnp)-ATNATX4X3PRIVGG-Lys(Abz), X4 = S, X3 = H
[42] = system: Lys(Dnp)-ATNATLTPRIVGG-Lys(Abz)
[43] = system: Lys(Dnp)-ATNATX4X3PRIVGG-Lys(Abz), X4 = S, X3 = V
[44] = system: Lys(Dnp)-ATNATX4X3PRIVGG-Lys(Abz), X4 = T, X3 = G

Human plasma purified alpha-thrombin showed an FIIa kcat/KM [1] of 210 M⁻¹ s⁻¹, a Specificity Ratio (FIIa/FXa) [1] of 2 and an FIIa kcat/KM [2] of 3600 M⁻¹ s⁻¹. The Specificity Ratio (FIIa/FXa) [2] was 3, the FIIa kcat/KM [3] was 820 M⁻¹ s⁻¹ and the Specificity Ratio (FIIa/FXa) [3] was 11. The FIIa kcat/KM [4] was 820 M⁻¹ s⁻¹, the Specificity Ratio (FIIa/FXa) [4] was 10 and the FIIa kcat/KM [5] was 370 M⁻¹ s⁻¹. It also gave a Specificity Ratio (FIIa/FXa) [5] of 6, an FIIa kcat/KM [6] of 670 M⁻¹ s⁻¹ and an FIIa kcat/KM [7] of 1200 M⁻¹ s⁻¹. It also gave a Specificity Ratio (FIIa/FXa) [7] of 13, an FIIa kcat/KM [8] of 510 M⁻¹ s⁻¹ and a Specificity Ratio (FIIa/FXa) [8] of 6. For the same substance, the FIIa kcat/KM [9] was 1600 M⁻¹ s⁻¹, the Specificity Ratio (FIIa/FXa) [9] was 3 and the FIIa kcat/KM [10] was 650 M⁻¹ s⁻¹. It also gave a Specificity Ratio (FIIa/FXa) [10] of 6, an FIIa kcat/KM [11] of 1100 M⁻¹ s⁻¹ and a Specificity Ratio (FIIa/FXa) [11] of 8. For the same substance, the FIIa kcat/KM [12] was 520 M⁻¹ s⁻¹, the Specificity Ratio (FIIa/FXa) [12] was 21 and the FIIa kcat/KM [13] was 980 M⁻¹ s⁻¹. The Specificity Ratio (FIIa/FXa) [13] was 1, the FIIa kcat/KM [14] was 800 M⁻¹ s⁻¹ and the Specificity Ratio (FIIa/FXa) [14] was 6. It also gave an FIIa kcat/KM [15] of 1400 M⁻¹ s⁻¹, a Specificity Ratio (FIIa/FXa) [15] of 7 and an FIIa kcat/KM [16] of 590 M⁻¹ s⁻¹. It also gave a Specificity Ratio (FIIa/FXa) [16] of 1, an FIIa kcat/KM [17] of 150 M⁻¹ s⁻¹ and a Specificity Ratio (FIIa/FXa) [17] of 7. It also gave an FIIa kcat/KM [18] of 750 M⁻¹ s⁻¹ and a Specificity Ratio (FIIa/FXa) [18] of 6.

Work on Human plasma purified α-thrombin yielded a kcat/KM [1] of 210 M⁻¹ s⁻¹, a kcat/KM [2] of 3600 M⁻¹ s⁻¹ and a kcat/KM [3] of 820 M⁻¹ s⁻¹. It also gave a kcat/KM [4] of 820 M⁻¹ s⁻¹, a kcat/KM [5] of 370 M⁻¹ s⁻¹ and an FIIa kcat/KM [19] of 3500 M⁻¹ s⁻¹. It also gave a Specificity Ratio (FIIa/FXa) [19] of 7, an FIIa kcat/KM [20] of 700 M⁻¹ s⁻¹ and a Specificity Ratio (FIIa/FXa) [20] of 47. For the same substance, the FIIa kcat/KM [21] was 21000 M⁻¹ s⁻¹, the Functional Selectivity (Specificity*FIIa kcat/KM) [21] was 1.7e+06 and the kcat/KM [21] was 21000 M⁻¹ s⁻¹. The FIIa kcat/KM [22] was 4700 M⁻¹ s⁻¹, the Specificity Ratio (FIIa/FXa) [22] was 23 and the kcat/KM [22] was 4700 M⁻¹ s⁻¹. The kcat/KM [6] was 670 M⁻¹ s⁻¹, the FIIa kcat/KM [23] was 12000 M⁻¹ s⁻¹ and the Specificity Ratio (FIIa/FXa) [23] was 27. For the same substance, the kcat/KM [23] was 12000 M⁻¹ s⁻¹, the FIIa kcat/KM [24] was 1200 M⁻¹ s⁻¹ and the Specificity Ratio (FIIa/FXa) [24] was 29. For the same substance, the FIIa kcat/KM [25] was 9 M⁻¹ s⁻¹, the Functional Selectivity (Specificity*FIIa kcat/KM) [25] was 27 and the Specificity Ratio (FIIa/FXa) [25] was 3. The kcat/KM [7] was 1200 M⁻¹ s⁻¹, the FIIa kcat/KM [26] was 410 M⁻¹ s⁻¹ and the Specificity Ratio (FIIa/FXa) [26] was 39. For the same substance, the FIIa kcat/KM [27] was 6500 M⁻¹ s⁻¹, the Functional Selectivity (Specificity*FIIa kcat/KM) [27] was 1e+06 and the kcat/KM [27] was 6500 M⁻¹ s⁻¹. For the same substance, the FIIa kcat/KM [28] was 1400 M⁻¹ s⁻¹, the Specificity Ratio (FIIa/FXa) [28] was 45 and the kcat/KM [8] was 510 M⁻¹ s⁻¹. The kcat/KM [9] was 1600 M⁻¹ s⁻¹, the kcat/KM [10] was 650 M⁻¹ s⁻¹ and the kcat/KM [11] was 1100 M⁻¹ s⁻¹. The FIIa kcat/KM [29] was 12000 M⁻¹ s⁻¹, the Specificity Ratio (FIIa/FXa) [29] was 9 and the kcat/KM [29] was 12000 M⁻¹ s⁻¹. For the same substance, the kcat/KM [12] was 520 M⁻¹ s⁻¹, the kcat/KM [13] was 980 M⁻¹ s⁻¹ and the FIIa kcat/KM [30] was 7800 M⁻¹ s⁻¹. The Specificity Ratio (FIIa/FXa) [30] was 6, the kcat/KM [31] was 1100 M⁻¹ s⁻¹ and the FIIa kcat/KM [32] was 2800 M⁻¹ s⁻¹. The Specificity Ratio (FIIa/FXa) [32] was 9, the FIIa kcat/KM [33] was 11000 M⁻¹ s⁻¹ and the Functional Selectivity (Specificity*FIIa kcat/KM) [33] was 2.1e+06. The kcat/KM [33] was 11000 M⁻¹ s⁻¹, the FIIa kcat/KM [34] was 14000 M⁻¹ s⁻¹ and the Functional Selectivity (Specificity*FIIa kcat/KM) [34] was 2.3e+06. The kcat/KM [34] was 14000 M⁻¹ s⁻¹, the FIIa kcat/KM [35] was 5300 M⁻¹ s⁻¹ and the Functional Selectivity (Specificity*FIIa kcat/KM) [35] was 83000. It also gave a Specificity Ratio (FIIa/FXa) [35] of 16, a kcat/KM [35] of 5300 M⁻¹ s⁻¹ and an FIIa kcat/KM [36] of 21000 M⁻¹ s⁻¹. The Functional Selectivity (Specificity*FIIa kcat/KM) [36] was 630000, the kcat/KM [36] was 21000 M⁻¹ s⁻¹ and the FIIa kcat/KM [37] was 430 M⁻¹ s⁻¹. The Specificity Ratio (FIIa/FXa) [37] was 57, the kcat/KM [15] was 1400 M⁻¹ s⁻¹ and the FIIa kcat/KM [38] was 3300 M⁻¹ s⁻¹. The Specificity Ratio (FIIa/FXa) [38] was 18, the FIIa kcat/KM [39] was 16000 M⁻¹ s⁻¹ and the Functional Selectivity (Specificity*FIIa kcat/KM) [39] was 5.8e+06. The kcat/KM [39] was 16000 M⁻¹ s⁻¹, the FIIa kcat/KM [40] was 6400 M⁻¹ s⁻¹ and the Functional Selectivity (Specificity*FIIa kcat/KM) [40] was 760000. For the same substance, the kcat/KM [40] was 6400 M⁻¹ s⁻¹, the FIIa kcat/KM [41] was 1100 M⁻¹ s⁻¹ and the Specificity Ratio (FIIa/FXa) [41] was 44. It also gave an FIIa kcat/KM [42] of 44000 M⁻¹ s⁻¹, a Functional Selectivity (Specificity*FIIa kcat/KM) [42] of 3.6e+06 and a kcat/KM [42] of 44000 M⁻¹ s⁻¹. It also gave a kcat/KM [16] of 590 M⁻¹ s⁻¹, an FIIa kcat/KM [43] of 890 M⁻¹ s⁻¹ and a Specificity Ratio (FIIa/FXa) [43] of 23. For the same substance, the FIIa kcat/KM [44] was 770 M⁻¹ s⁻¹, the Specificity Ratio (FIIa/FXa) [44] was 37 and the kcat/KM [17] was 150 M⁻¹ s⁻¹. It also gave a kcat/KM [18] of 750 M⁻¹ s⁻¹.
